The values below are quoted from earlier work in patent US10517869B2, “Topical brimonidine tartrate ophthalmic solution” (SENTISS PHARMA PRIVATE LIMITED, priority 2013, dated 2019).

The conditions of this data set: cited from earlier work.

Structures are written as SMILES.

Consider `Brc1c(NC2=NCCN2)ccc2nccnc12` [Brimonidine], for which the pKa (as a rule, the pH at which an ionisable group is half protonated) is reported as 7.4.
